Measurements: patent publication US6353015B1, “Method of treating neurodegenerative disorders” (St. Elizabeth's Medical Center, priority 1998, dated 2002)

System: AF64A-treated rats
Settings: rat, in vivo

In the case of `CC(=O)NCCc1c[nH]c2ccc(O)cc12` [NAS, N-acetylserotonin], the “rank among the studied compounds in the active avoidance test” value is reported as “weakest”.
